The test system of this assay is MDA-MB-231. The assay can be described thus: Antiproliferative activity against human MDA-MB-231 cells after 72 hrs by colorimetric tetrazolium assay. Type of assay: functional, cell-based. The conditions noted are these: MDA-MB-231, 72 h. A digest of the protocol: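 MDA-MB-231 cells grown in DMEM with 10% FBS and penicillin/streptomycin at 37 °C, 5% CO2, used within passages 10-25. Seeded at 2400 cells/well in DMEM with 5% FBS for 24 h, then exposed to compound (final DMSO 0.5% v/v) for 72 h. MTS-type tetrazolium reagent added for 2 h at 37 °C, absorbance read at 490 nm, blank subtracted. Triplicate wells. IC50 from sigmoidal viability curve, mean of at least two determinations.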

Structures are written as SMILES.

With `CCCCCCCCn1cc(CC(N)=O)c2cc(-c3cccc(C)c3)ccc21`, inhibition was half-maximal at 21.8 µM (IC50).

For orientation: IC50 means the concentration needed to halve the response being measured.

For the origin of these results see ChEMBL document CHEMBL1255568, “Amino derivatives of indole as potent inhibitors of isoprenylcysteine carboxyl methyltransferase” (J Med Chem, 2010).
